Yeast UUG start: alters start codon recognition fidelity in yeast. S. cerevisiae UUG-firefly luciferase reporter, luminescence/redox ratio. activity score, % at 18.7 µM. 0.13% of 350,000 active. AID 602363;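 active = replicate mean at a twofold rise or more, about +100% in these data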;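 also: firefly luciferase made from a UUG start codon reports start codon fidelity; reporter light over untreated wells divided by growth signal over untreated wells; some hits fall short of that in this replicate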
miR-122 sensor: miR-122 inhibition in Huh7 cells; hit rate 0.3% among 340,000; AID 602342; activation (reporter increase), % at 12.5 µM; Huh7 miR-122 Renilla luciferase sensor, 48 h; neutral wells = 0, positive control = 100;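 active = mean replicate activation score at least 90 and every replicate individually at or above 90; inconclusive = only one of the two criteria met; inactive = neither criterion met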;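 note: higher luciferase means less miR-122 activity so hits act as miR-122 inhibitors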
MITF TRPM1 inh: reduces MITF-dependent TRPM1 promoter luciferase signal | inhibition, % at 12.5 µM | hit rate 0.83% among 330,000 | SK-MEL-5 TRPM1 promoter luciferase, 24 h | AID 488899;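 active = mean inhibition across replicates of 60% or more, whatever share of single replicates reaches that level; inconclusive = some that reach 60%, reason not given; inactive = mean inhibition across replicates below 60%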
Wnt act: activators of Wnt/beta-catenin signaling | Wnt/beta-catenin reporter cell assay, activator, plate reader | activation, % at 9.35 µM | hit rate 1.2% among 300,000 | AID 743398; in the data active = activation above about 30%, passing the limit was not always enough; inconclusive = no clear call, values can overlap the other calls;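 note: 0% = neutral control wells and 100% = positive control wells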
PGC1a acetyl inh: modulators of PGC1a acetylation; hit rate 0.17% among 350,000; U2OS PGC1a acetylation, AlphaScreen anti-acetyl-lysine; with virally co-expressed GCN5 acetyltransferase; inhibition, % at 15.6 µM;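 active = every replicate shows inhibition of at least 40%; inconclusive = mean inhibition at least 40% but some replicate below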;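 note: 0% = neutral control wells and 100% = positive control wells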
MITF TRPM1 HTS: activators of MITF-driven TRPM1 promoter activity in SK-MEL-5 cells. SK-MEL-5 TRPM1-promoter luciferase, 24 h; % of positive control, neutral wells = 0. activation, % at 12.5 µM. hit rate 0.75% among 300,000;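 active = mean activation of at least 80% with every replicate also reaching 80%; inconclusive = mean reaches 80% but some replicate falls short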;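 note: 0% = neutral control wells and 100% = parthenolide positive control wells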
Starred values were filed as active, the others as inactive; ? = inconclusive; / = not tested or not shown; [ ] = another dose, or the depositor's remark. In the library only some 2.1% were active in any assay of this set; here they are far more common.

Yeast UUG start,miR-122 sensor,mol,MITF TRPM1 inh,Wnt act,PGC1a acetyl inh,MITF TRPM1 HTS
-15,-11,Cc1cc(Nc2ccc(Cl)cc2)nc(N)n1,-50,/,/,53
/,/,Nc1cc(Nc2ccc(Br)cc2)nc(N)n1,-67,39*,/,?
2,1[16.7 µM],Cc1noc(C)c1S(=O)(=O)Nc1cccc2c1O[C@@H](CN(C)C(=O)Nc1ccccc1)[C@@H](C)CN([C@H](C)CO)C2=O,/,/,1,/
-17,-2,O=C(Cc1ccc(Cl)cc1)NC(=S)Nc1ccccc1N1CCOCC1,18,/,-8,-19
-3,-8,O=C(Nc1ccc(N2CCOCC2)cc1N1CCOCC1)c1ccccc1,1,-1,/,4
/,/,O=C(Nc1ccccc1N1CCOCC1)C1(c2ccc(Cl)cc2)CCC1,1,0,41*,-2
-24,10,O=C(Nc1ccccc1N1CCOCC1)c1ccc2ccccc2n1,-20,40*,4,/
/,/,O=C(Nc1ccccc1N1CCN(c2ccccc2)CC1)c1ccccc1,16,42*,-29,-16
8,6[16.7 µM],CC(=O)N(C)C[C@@H]1[C@@H](c2ccc(-c3ccccc3F)cc2)[C@H](CO)N1C(C)=O,/,/,-2,/
12,-7,CC1CCN(C(=O)c2cc(-c3ccco3)on2)CC1,-53,24,/,55
-10,-4,COc1ccccc1-c1cc(C(=O)N2CCOCC2)no1,-105,29,14,105*
-11,6,COc1ccccc1-c1cc(C(=O)N2CCCC2)no1,-51,37*,0,51
-23,0,CC1CCN(C(=O)c2cc(-c3ccccc3O)on2)CC1,-103,63*,-4,104*
-20,3,COc1ccccc1-c1cc(C(=O)N2CCN(c3ccc(F)cc3)CC2)no1,1,3,-1,4
14,0[16.7 µM],Cc1cc(C(=O)Nc2cccc3c2O[C@@H](CN(C)C(=O)Nc2ccc(C(F)(F)F)cc2)[C@H](C)CN([C@H](C)CO)C3=O)n(C)n1,/,/,-7,/
-30,7,CC(=O)Nc1cc(-c2ccc(N3CCN(C)CC3)cc2)cn2c(-c3ccccc3)cnc12,/,38*,-28,/
-12,-3,CCOC(=O)N1CCC2(CC1)C(C#N)=C(N)Oc1n[nH]c(CSc3ccc(C)cc3)c12,7,70*,-15,/
/,-2,Cc1ccc(SCc2[nH]nc3c2C2(CCSCC2)C(C#N)=C(N)O3)cc1,5,/,/,-1
-31,7,CC(/C=N/NC(=O)c1cccc(F)c1)=C\c1ccccc1,-45,40*,/,44
-11,-7,O=C(N/N=C/c1ccc(Cl)cc1Cl)c1cccc(F)c1,-137,38*,2,138*
-26,-15,NC(=O)c1ccc(NC(=O)C#Cc2ccccc2)cc1,7,41*,-203,-9
7,/,COc1ccc(NC(=O)C#Cc2ccccc2)cc1OC,-2,1,/,/
7,7,Cc1ccc(Cl)cc1NC1=C/C(=N\S(=O)(=O)c2cccs2)c2ccccc2C1=O,90*,5,8,-89
-3,41,Cc1cc(C)c(S(=O)(=O)/N=C2\C=C(NS(=O)(=O)c3ccccc3)C(=O)c3ccccc32)c(C)c1,25,-3,/,-22

An excerpt from above in order of count of non-hydrogen atoms, ascending:
Yeast UUG start,miR-122 sensor,mol,MITF TRPM1 inh,Wnt act,PGC1a acetyl inh,MITF TRPM1 HTS
-11,-7,O=C(N/N=C/c1ccc(Cl)cc1Cl)c1cccc(F)c1,-137,38*,2,138*
-23,0,CC1CCN(C(=O)c2cc(-c3ccccc3O)on2)CC1,-103,63*,-4,104*
/,-2,Cc1ccc(SCc2[nH]nc3c2C2(CCSCC2)C(C#N)=C(N)O3)cc1,5,/,/,-1
-12,-3,CCOC(=O)N1CCC2(CC1)C(C#N)=C(N)Oc1n[nH]c(CSc3ccc(C)cc3)c12,7,70*,-15,/
-30,7,CC(=O)Nc1cc(-c2ccc(N3CCN(C)CC3)cc2)cn2c(-c3ccccc3)cnc12,/,38*,-28,/

(listing goes on)
Yeast UUG start,miR-122 sensor,mol,MITF TRPM1 inh,Wnt act,PGC1a acetyl inh,MITF TRPM1 HTS
/,/,Cc1cccc(NC2=C/C(=N/S(=O)(=O)c3cccs3)c3ccccc3C2=O)c1,102*,10,/,-100
/,/,O=C1C(Nc2ccc(O)cc2)=C/C(=N/S(=O)(=O)c2cccs2)c2ccccc21,108*,-26,/,-108
-28,-7,Cc1ccc(NC2=C/C(=N\S(=O)(=O)c3cccs3)c3ccccc3C2=O)c(C)c1,105*,/,93*,-105
-32,0,O=C(O)c1ccc(NC2=C/C(=N/S(=O)(=O)c3cccs3)c3ccccc3C2=O)cc1,/,-6,9,/
/,1[16.7 µM],CC(C)NC(=O)Nc1ccc2c(c1)C(=O)N([C@@H](C)CO)C[C@@H](C)[C@@H](CN(C)C(=O)CCCN(C)C)OCCCC[C@@H](C)O2,/,/,-4,/
-7,/,Nc1ccc(-c2nnn(Cc3ccccc3)n2)cc1,-14,4,/,/
/,1,CSc1ccc(-c2nnn(Cc3ccc(C)cc3)n2)cc1,-101,/,8,94*
-31,-19,CC1=C(CC(=O)c2ccccc2)C(=O)c2ccccc2C1=O,66*,19,/,-64
-12,0,O=C(CN1C(=O)c2ccccc2C1=O)c1ccccc1,-20,/,4,22
-11,5,CN(C)c1ccnc2sc(C(N)=O)c(N)c12,-10,/,48*,14
/,1[16.7 µM],CCCN1[C@H](C(=O)OC)[C@@H](CO)[C@@H]2Cn3c(ccc(C4=CCCC4)c3=O)[C@@H]21,/,/,-6,/
-11,4,CCOC(=O)c1c(N2C(=O)C=CC2=O)sc(C)c1C,61*,/,6,-58
-19,-6,CCOC(=O)c1c(NC(N)=O)sc(C)c1C,12,/,-11,-10
-13,/,COc1ccc(C2CC(=O)c3cc(OC)ccc3O2)cc1 (stereo not given),-46,-1,0,45
-13,-4,O=C1CC(c2ccc3c(c2)OCCO3)Oc2ccccc21 (stereo not given),-99,?,-4,104*
0,-1,COc1ccc(C2CC(=O)c3ccccc3O2)cc1 (stereo not given),-110,43*,0,126*
/,/,COc1cc2ccc(-c3ccc4ccccc4n3)cc2cc1OC,/,50*,/,/
/,/,COc1ccc(-c2ccc3ccccc3n2)cc1OC,-103,31*,3,100*
/,/,COc1ccc(-c2ccc3ccccc3n2)cc1,-51,9,2,48
-7,-2,CCCN(CCC)c1nc2ccccc2nc1C(C#N)C(=O)OCCOC (stereo not given),-90,/,-4,91*
/,/,COc1ccc2c3c([nH]c2c1)[C@@H](CO)N(CC1CC1)CC31CCN(C(=O)NC2CCCC2)CC1,/,/,12,/
-4,-1[16.7 µM],O=C(NC1CCC1)[C@@H]1[C@@H](CO)[C@@H]2Cn3c(ccc(-c4ccccc4)c3=O)[C@H]1N2,/,/,/,/
0,-2[16.7 µM],CNC[C@H]1OCCCC[C@H](C)Oc2ccc(NC(=O)c3ccccc3)cc2C(=O)N([C@H](C)CO)C[C@@H]1C,/,/,6,/
/,-5,N#C/C(=C/c1ccc(OCc2ccc(C(=O)O)cc2)c(Br)c1)c1cccc(F)c1,-5,-1,96*,6
/,/,Cc1cc(C)c(OCC(=O)OCC(=O)N2CCN(C(=O)c3ccco3)CC2)c(C)c1,2,-1,/,0
14,4,Cc1cc(Br)cc(Cl)c1OCC(=O)N1CCN(C(=O)c2ccco2)CC1,5,59*,1,-3
/,/,Cc1cc(-c2nc3cc(F)ccc3s2)ccc1N,-11,60*,/,8
-82,1,N/C(=N\OC(=O)CC1CCCCC1)c1ccccn1,-87,/,12,88*
4,-6,N/C(=N\OC(=O)C12CC3CC(CC(C3)C1)C2)c1ccccc1,-18,/,9,21
/,/,N/C(=N\OC(=O)CC1CCCCC1)c1ccncc1,-10,1,/,9

Quoted at random: 2 records from the list, in no set order.
Yeast UUG start,miR-122 sensor,mol,MITF TRPM1 inh,Wnt act,PGC1a acetyl inh,MITF TRPM1 HTS
4,-6,N/C(=N\OC(=O)C12CC3CC(CC(C3)C1)C2)c1ccccc1,-18,/,9,21
-82,1,N/C(=N\OC(=O)CC1CCCCC1)c1ccccn1,-87,/,12,88*
